Data taken from US11248234B2, “Herbicide-resistant hydroxyphenylpyruvate dioxygenases” (BASF SE, priority 2015, dated 2022).

By UniProt entry, the sequences of proteins in these tests, tags left out.
UniProt A0A383WMN4, entry or part of it N195D: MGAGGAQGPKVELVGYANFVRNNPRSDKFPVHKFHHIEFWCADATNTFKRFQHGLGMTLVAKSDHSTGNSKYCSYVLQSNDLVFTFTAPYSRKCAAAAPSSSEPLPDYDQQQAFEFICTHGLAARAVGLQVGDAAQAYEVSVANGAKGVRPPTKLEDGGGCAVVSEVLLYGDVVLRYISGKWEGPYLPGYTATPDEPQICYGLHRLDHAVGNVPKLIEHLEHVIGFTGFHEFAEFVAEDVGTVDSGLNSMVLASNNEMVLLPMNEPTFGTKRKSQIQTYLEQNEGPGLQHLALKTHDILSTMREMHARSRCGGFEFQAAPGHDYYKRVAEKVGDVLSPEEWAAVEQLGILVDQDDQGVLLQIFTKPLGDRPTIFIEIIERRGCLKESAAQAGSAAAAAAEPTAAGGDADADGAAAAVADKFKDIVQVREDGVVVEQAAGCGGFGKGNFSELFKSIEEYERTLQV
UniProt A0A383WMN4, entry or part of it N195D/DEL398-433: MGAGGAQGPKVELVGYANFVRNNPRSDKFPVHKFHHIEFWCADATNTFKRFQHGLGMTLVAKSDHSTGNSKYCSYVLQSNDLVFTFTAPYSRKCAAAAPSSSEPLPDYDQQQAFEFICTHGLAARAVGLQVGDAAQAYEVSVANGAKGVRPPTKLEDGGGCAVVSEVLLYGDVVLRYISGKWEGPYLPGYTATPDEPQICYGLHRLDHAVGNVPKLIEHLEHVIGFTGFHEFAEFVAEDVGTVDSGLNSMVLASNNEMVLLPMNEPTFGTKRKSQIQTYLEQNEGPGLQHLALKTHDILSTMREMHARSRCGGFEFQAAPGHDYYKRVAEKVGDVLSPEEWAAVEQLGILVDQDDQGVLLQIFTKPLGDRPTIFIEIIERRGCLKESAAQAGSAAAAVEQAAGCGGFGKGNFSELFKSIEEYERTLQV

Experiments:
[1] = target: T1, Arabidopsis HPPD (Seq ID: 42) (Arabidopsis thaliana, UniProt P93836); assay: In vitro HPPD activity assay (homogentisic acid by HPLC); type: biochemical; conditions: for TI (normalized tolerance index): benchmark enzyme, normalized on Arabidopsis wild-type HPPD; for TI (tolerance index): not normalized
T1 construct: His6; made in house; host or cells: E. coli BL21 (DE3)
T1 sequence (P93836 1-445): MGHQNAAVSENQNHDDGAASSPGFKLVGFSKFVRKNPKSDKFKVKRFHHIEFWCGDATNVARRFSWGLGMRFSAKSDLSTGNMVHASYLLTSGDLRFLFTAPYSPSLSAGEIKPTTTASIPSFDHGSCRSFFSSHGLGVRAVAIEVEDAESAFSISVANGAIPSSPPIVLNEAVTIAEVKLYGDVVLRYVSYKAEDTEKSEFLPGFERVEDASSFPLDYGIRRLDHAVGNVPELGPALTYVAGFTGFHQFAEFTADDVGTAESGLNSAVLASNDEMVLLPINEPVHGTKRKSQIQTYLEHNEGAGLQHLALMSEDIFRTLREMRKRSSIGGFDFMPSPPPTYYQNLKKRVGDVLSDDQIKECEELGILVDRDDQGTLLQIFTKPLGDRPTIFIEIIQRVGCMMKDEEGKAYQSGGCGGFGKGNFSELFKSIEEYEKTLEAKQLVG
Description: (§1) HPPD produces homogentisic acid and CO2 from 4-hydroxyphenylpyruvate (4-HPP) and O2. The activity assay for HPPD is based on the analysis of homogentisic acid by reversed phase HPLC.
(§2) The assay mixture can contain 150 mM potassium phosphate buffer pH 7.0, 50 mM L-ascorbic acid, 100 μM Catalase (Sigma-Aldrich), 1 μM FeSO4 and 0.2 units of purified mutated HPPD enzyme in a total volume of 505 μl. 1 unit is defined as the amount of enzyme that is required to produce 1 nmol of HGA per minute at 20° C.
(§3) After a preincubation of 30 min the reaction is started by adding 4-HPP to a final concentration of 0.05 mM. The reaction is allowed to proceed for 45 min at room temperature. The reaction is stopped by the addition of 50 μl of 4.5 M phosphoric acid. The sample is filtered using a […] pore size PVDF filtration device.
(§4) 5 μl of the cleared sample is analyzed on an UPLC HSS T3 column (particle size 1.8 μm, dimensions 2.1×50 mm; Waters) by isocratic elution using 90% 20 mM NaH2PO4 pH 2.2, 10% methanol (v/v).
(§5) HGA is detected electrochemically at 750 mV (mode: DC; polarity: positive) and quantified by integrating peak areas (Empower software; Waters).
Inhibitors are dissolved in DMSO (dimethylsulfoxide) to a concentration of 0.5 mM. From this stock solution serial five-fold dilutions are prepared in DMSO, which are used in the assay. The respective inhibitor solution accounts for 1% of the assay volume. […] Activities are normalized by setting the uninhibited enzyme activity to 100%. IC50 values are calculated using non-linear regression.
Using methods which are described in the above examples or well known in the art, purified, recombinant mutated HPPD enzymes are characterized with respect to their kinetic properties and sensitivity towards HPPD inhibiting herbicides. Apparent michaelis constants (Km) and maximal reaction velocities (Vmax) are calculated by non-linear regression with the software GraphPad Prism 5 (GraphPad Software, La Jolla, USA) using a substrate inhibition model. […] Weighted means (by standard error) of Km and IC50 values are calculated from at least three independent experiments.
(§6) Field performance of the HPPD enzyme, which is used as a herbicide tolerance trait may depend not only on its lack of sensitivity towards HPPD inhibiting herbicides but also on its activity. To assess the potential performance of a herbicide tolerance trait a tolerance index (TI) is calculated using the following formula: […]
(§7) Easy comparison and ranking of each trait is enabled by normalizing tolerance indexes on Arabidopsis wild-type HPPD.

[2] = target: Scenedesmus HPPD (Seq ID: 2) (Tetradesmus obliquus, UniProt A0A383WMN4, N195D); assay: In vitro HPPD activity assay; type: biochemical; conditions: for TI (normalized tolerance index): normalized on Arabidopsis wild-type HPPD (SEQ ID NO:42); for TI (tolerance index): not normalized
Description: as §1, §2, §3, §4, §5
(§8) Inhibitors are dissolved in DMSO (dimethylsulfoxide) to a concentration of 0.5 mM. From this stock solution serial five-fold dilutions are prepared in DMSO, which are used in the assay. The respective inhibitor solution accounts for 1% of the assay volume. Thus, final inhibitor concentrations range from 5 μM to 320 pM, respectively. Activities are normalized by setting the uninhibited enzyme activity to 100%. IC50 values are calculated using non-linear regression.
(§9) Using methods which are described in the above examples or well known in the art, purified, recombinant mutated HPPD enzymes are characterized with respect to their kinetic properties and sensitivity towards HPPD inhibiting herbicides. Apparent michaelis constants (Km) and maximal reaction velocities (Vmax) are calculated by non-linear regression with the software GraphPad Prism 5 (GraphPad Software, La Jolla, USA) using a substrate inhibition model. Apparent kcat values are calculated from Vmax assuming 100% purity of the enzyme preparation. Weighted means (by standard error) of Km and IC50 values are calculated from at least three independent experiments. The Cheng-Prusoff equation for competitive inhibition (Cheng, Y. C.; Prusoff, W. H. Biochem Pharmacol 1973, 22, 3099-3108) is used to calculate dissociation constants (Ki).
as §6, §7

[3] = target: Scenedesmus Short HPPD (Seq ID: 4) (Tetradesmus obliquus, UniProt A0A383WMN4, DEL398-433/N195D); assay: In vitro HPPD activity assay; type: biochemical; conditions: for TI (normalized tolerance index): normalized on Arabidopsis wild-type HPPD (SEQ ID NO:42); for TI (tolerance index): not normalized
Description: as §1, §2, §3, §4, §5, §8, §9, §6, §7

[4] = test system: SoHPPD E345Q (short); assay: In vitro HPPD activity assay; type: biochemical, Scenedesmus obliquus; conditions: normalized on Arabidopsis wild-type HPPD (SEQ ID NO:42)
Description: as §1, §2, §3, §4, §5, §8, §9, §6, §7

[5] = test system: SoHPPD E379Q (short); assay: In vitro HPPD activity assay; type: biochemical, Scenedesmus obliquus; conditions: normalized on Arabidopsis wild-type HPPD (SEQ ID NO:42)
Description: as §1, §2, §3, §4, §5, §8, §9, §6, §7

[6] = test system: SoHPPD F39W, L367V, I375L (short); assay: In vitro HPPD activity assay; type: biochemical, Scenedesmus obliquus; conditions: normalized on Arabidopsis wild-type HPPD (SEQ ID NO:42)
Description: as §1, §2, §3, §4, §5, §8, §9, §6, §7

[7] = test system: SoHPPD H306K (short); assay: In vitro HPPD activity assay; type: biochemical, Scenedesmus obliquus; conditions: normalized on Arabidopsis wild-type HPPD (SEQ ID NO:42)
Description: as §1, §2, §3, §4, §5, §8, §9, §6, §7

[8] = test system: SoHPPD K326E, E345Q (short); assay: In vitro HPPD activity assay; type: biochemical, Scenedesmus obliquus; conditions: normalized on Arabidopsis wild-type HPPD (SEQ ID NO:42)
Description: as §1, §2, §3, §4, §5, §8, §9, §6, §7

[9] = test system: SoHPPD L367V, I375L (short); assay: In vitro HPPD activity assay; type: biochemical, Scenedesmus obliquus; conditions: normalized on Arabidopsis wild-type HPPD (SEQ ID NO:42)
Description: as §1, §2, §3, §4, §5, §8, §9, §6, §7

[10] = test system: SoHPPD Q317H, A318G, E345Q (short); assay: In vitro HPPD activity assay; type: biochemical, Scenedesmus obliquus; conditions: normalized on Arabidopsis wild-type HPPD (SEQ ID NO:42)
Description: as §1, §2, §3, §4, §5, §8, §9, §6, §7

[11] = test system: SoHPPD Q317H, A318G, E345Q; assay: In vitro HPPD activity assay; type: biochemical, Scenedesmus obliquus; conditions: normalized on Arabidopsis wild-type HPPD (SEQ ID NO:42)
Description: as §1, §2, §3, §4, §5, §8, §9, §6, §7

[12] = test system: SoHPPD Q317M (short); assay: In vitro HPPD activity assay; type: biochemical, Scenedesmus obliquus; conditions: normalized on Arabidopsis wild-type HPPD (SEQ ID NO:42)
Description: as §1, §2, §3, §4, §5, §8, §9, §6, §7

[13] = test system: SoHPPD R327G, E421D (short); assay: In vitro HPPD activity assay; type: biochemical, Scenedesmus obliquus; conditions: normalized on Arabidopsis wild-type HPPD (SEQ ID NO:42)
Description: as §1, §2, §3, §4, §5, §8, §9, §6, §7

Row | SMILES | TI (normalized tolerance index) [1] | TI (tolerance index) [1] | TI (normalized tolerance index) [2] | TI (tolerance index) [2] | TI (normalized tolerance index) [3] | TI (tolerance index) [3] | TI (normalized tolerance index) [4] | TI (normalized tolerance index) [5] | TI (normalized tolerance index) [6] | TI (normalized tolerance index) [7] | TI (normalized tolerance index) [8] | TI (normalized tolerance index) [9] | TI (normalized tolerance index) [10] | TI (normalized tolerance index) [11] | TI (normalized tolerance index) [12] | TI (normalized tolerance index) [13]
1 | Cc1c(C(=O)c2cnn(C)c2O)ccc(S(C)(=O)=O)c1C1=NOCC1 [Inhibitor 1, [3-(4,5-dihydroisoxazol-3-yl)-2-methyl-4-methylsulfonyl-phenyl]-(5-hydroxy-1-methyl-pyrazol-4-yl)methanone] | 1.0 | 0.95E−3 | 0.4 | 0.42E−3 | 9.3 | 8.85E−3 | 0.7 | 0.7 | 1.2 | 1.6 | 0.3 | 3.6 | 11.3 | 1.9 | 13.8 | 4.0
2 | CN(c1c(Cl)ccc(C2=C(O)c3ncccc3C(C)(C)S2(=O)=O)c1Cl)S(C)(=O)=O [Inhibitor 3, N-[2,6-dichloro-3-(8-hydroxy-5,5-dimethyl-6,6-dioxo-thiopyrano[4,3-b]pyridin-7-yl)phenyl]-N-methyl-methanesulfonamide] | 1.0 | 23.8E−3 | 0.2 | 4.41E−3 | 4.6 | 110E−3 | 0.6 | 0.2 | 0.5 | 0.8 | 0.1 | 1.0 | 3.5 | 1.0 | 4.1 | 1.2
3 | Cc1nonc1NC(=O)c1ccc(S(C)(=O)=O)c(S(C)(=O)=O)c1C [Inhibitor 6, 2-methyl-N-(4-methyl-1,2,5-oxadiazol-3-yl)-3,4-bis(methylsulfonyl)benzamide] | 1.0 |  | 0.3 |  | 6.6 |  | 1.2 | 0.5 | 0.7 | 1.2 | 0.2 | 2.1 | 7 | 0.8 | 8.7 | 2.7
4 | CSc1c(Cl)cc(F)c(C(=O)Nc2nnnn2C)c1Cl [Inhibitor 7, 2,4-dichloro-6-fluoro-3-methylsulfanyl-N-(1-methyltetrazol-5-yl)benzamide] | 1.0 |  | 0.1 |  | 0.4 |  | 0.1 | 0.2 | 0.2 | 0.2 | 0.1 | 0.4 | 1.3 | 0.1 | 0.9 | 0.5
